Data: PubChem BioAssay (NCI)
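Step 1: Grow cells in 96-well plates. Step 2: Expose to compound for 48 hours at 5 concentrations. Step 3: Interpolate endpoints linearly; if unreached, use highest concentration. At the GI50, growth is halved. TGI marks complete inhibition of growth.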

How the values were obtained:
Experiment in all cases: NCI-60 cell line screen, 48 h
A498 renal = test system: A498 renal
SNB-19 CNS = test system: SNB-19 CNS
MALME-3M melanoma = test system: MALME-3M melanoma
T-47D breast = test system: T-47D breast
SNB-75 CNS = test system: SNB-75 CNS
NCI-H23 lung = test system: NCI-H23 lung
OVCAR-3 ovarian = test system: OVCAR-3 ovarian
ACHN renal = test system: ACHN renal
786-0 renal = test system: 786-0 renal
NCI-H322M lung = test system: NCI-H322M lung
CCRF-CEM leukemia = test system: CCRF-CEM leukemia
SK-MEL-5 melanoma = test system: SK-MEL-5 melanoma
CAKI-1 renal = test system: CAKI-1 renal
MCF7 breast = test system: MCF7 breast
SN12C renal = test system: SN12C renal
UACC-62 melanoma = test system: UACC-62 melanoma
RXF 393 renal = test system: RXF 393 renal
NCI-H226 lung = test system: NCI-H226 lung
HCT-116 colon = test system: HCT-116 colon
COLO 205 colon = test system: COLO 205 colon
SK-MEL-2 melanoma = test system: SK-MEL-2 melanoma
HCT-15 colon = test system: HCT-15 colon
PC-3 prostate = test system: PC-3 prostate
A549 NSCLC = test system: A549 NSCLC
UACC-257 melanoma = test system: UACC-257 melanoma
LOX IMVI melanoma = test system: LOX IMVI melanoma
U251 CNS = test system: U251 CNS
SK-OV-3 ovarian = test system: SK-OV-3 ovarian
UO-31 renal = test system: UO-31 renal
MDA-N = test system: MDA-N
SK-MEL-28 melanoma = test system: SK-MEL-28 melanoma
SW-620 colon = test system: SW-620 colon
DU-145 prostate = test system: DU-145 prostate
HT29 colon = test system: HT29 colon
SF-539 CNS = test system: SF-539 CNS
NCI-H460 lung = test system: NCI-H460 lung
HOP-92 NSCLC = test system: HOP-92 NSCLC
BT-549 breast = test system: BT-549 breast
MDA-MB-435 = test system: MDA-MB-435
NCI/ADR-RES ovarian = test system: NCI/ADR-RES ovarian
SF-268 CNS = test system: SF-268 CNS
IGROV1 ovarian = test system: IGROV1 ovarian
RPMI-8226 leukemia = test system: RPMI-8226 leukemia
OVCAR-8 ovarian = test system: OVCAR-8 ovarian
TK-10 renal = test system: TK-10 renal
HCC-2998 colon = test system: HCC-2998 colon
SR leukemia = test system: SR leukemia
NCI-H522 lung = test system: NCI-H522 lung
K-562 leukemia = test system: K-562 leukemia
HOP-62 NSCLC = test system: HOP-62 NSCLC
MOLT-4 leukemia = test system: MOLT-4 leukemia
M14 melanoma = test system: M14 melanoma
OVCAR-4 ovarian = test system: OVCAR-4 ovarian
MDA-MB-231 breast = test system: MDA-MB-231 breast
HL-60(TB) leukemia = test system: HL-60(TB) leukemia
SF-295 CNS = test system: SF-295 CNS
HS 578T breast = test system: HS 578T breast
OVCAR-5 ovarian = test system: OVCAR-5 ovarian
EKVX NSCLC = test system: EKVX NSCLC
KM12 colon = test system: KM12 colon

## CN(C)CCCOC(=O)C(O)(Cc1ccccc1)c1cccc2c1OC(C)(C)C2 (stereo not given)
A498 renal
  TGI: > 100 µM
SNB-19 CNS
  TGI: > 100 µM
MALME-3M melanoma
  TGI: 48.8 µM
T-47D breast
  TGI: > 100 µM
SNB-75 CNS
  TGI: 82 µM
NCI-H23 lung
  TGI: > 100 µM
OVCAR-3 ovarian
  TGI: > 100 µM
ACHN renal
  TGI: > 100 µM
786-0 renal
  TGI: > 100 µM
NCI-H322M lung
  TGI: > 100 µM
CCRF-CEM leukemia
  TGI: > 100 µM
SK-MEL-5 melanoma
  TGI: 31.5 µM
CAKI-1 renal
  TGI: > 100 µM
MCF7 breast
  TGI: > 100 µM
SN12C renal
  TGI: > 100 µM
UACC-62 melanoma
  TGI: > 100 µM
RXF 393 renal
  TGI: > 100 µM
NCI-H226 lung
  TGI: > 100 µM
HCT-116 colon
  TGI: > 100 µM
COLO 205 colon
  TGI: 50.4 µM
SK-MEL-2 melanoma
  TGI: > 100 µM
HCT-15 colon
  TGI: > 100 µM
PC-3 prostate
  TGI: > 100 µM
A549 NSCLC
  TGI: > 100 µM
UACC-257 melanoma
  TGI: 39.2 µM
LOX IMVI melanoma
  TGI: > 100 µM
U251 CNS
  TGI: > 100 µM
SK-OV-3 ovarian
  TGI: > 100 µM
UO-31 renal
  TGI: > 100 µM
MDA-N
  TGI: > 100 µM
SK-MEL-28 melanoma
  TGI: 45.7 µM
SW-620 colon
  TGI: > 100 µM
DU-145 prostate
  TGI: > 100 µM
HT29 colon
  TGI: 91.8 µM
SF-539 CNS
  TGI: > 100 µM
NCI-H460 lung
  TGI: > 100 µM
HOP-92 NSCLC
  TGI: 98.7 µM
BT-549 breast
  TGI: > 100 µM
MDA-MB-435
  TGI: > 100 µM
NCI/ADR-RES ovarian
  TGI: > 100 µM
SF-268 CNS
  TGI: > 100 µM
IGROV1 ovarian
  TGI: > 100 µM
RPMI-8226 leukemia
  TGI: > 100 µM
OVCAR-8 ovarian
  TGI: > 100 µM
TK-10 renal
  TGI: > 100 µM
HCC-2998 colon
  TGI: 38 µM
SR leukemia
  TGI: 42 µM
NCI-H522 lung
  TGI: > 100 µM
K-562 leukemia
  TGI: 81 µM
HOP-62 NSCLC
  TGI: > 100 µM
MOLT-4 leukemia
  TGI: > 100 µM
M14 melanoma
  TGI: 33.6 µM
OVCAR-4 ovarian
  TGI: > 100 µM
MDA-MB-231 breast
  TGI: > 100 µM
HL-60(TB) leukemia
  TGI: > 100 µM
SF-295 CNS
  TGI: > 100 µM
HS 578T breast
  TGI: > 100 µM
OVCAR-5 ovarian
  TGI: > 100 µM
EKVX NSCLC
  TGI: > 100 µM
KM12 colon
  TGI: > 100 µM

## BrC1C2(SCCS2)[C@@H]2C[C@@H](c3ccccc32)C12SCCS2 (stereo not given in full)
A498 renal
  GI50: > 100 µM
  TGI: > 100 µM
SNB-19 CNS
  GI50: > 100 µM
  TGI: > 100 µM
MALME-3M melanoma
  GI50: > 100 µM
  TGI: > 100 µM
SNB-75 CNS
  GI50: 18.7 µM
  TGI: > 100 µM
NCI-H23 lung
  GI50: > 100 µM
  TGI: > 100 µM
OVCAR-3 ovarian
  GI50: > 100 µM
  TGI: > 100 µM
ACHN renal
  GI50: > 100 µM
  TGI: > 100 µM
786-0 renal
  GI50: > 100 µM
  TGI: > 100 µM
NCI-H322M lung
  GI50: > 100 µM
  TGI: > 100 µM
CCRF-CEM leukemia
  GI50: > 100 µM
  TGI: > 100 µM
SK-MEL-5 melanoma
  GI50: 63.5 µM
  TGI: > 100 µM
CAKI-1 renal
  GI50: > 100 µM
  TGI: > 100 µM
MCF7 breast
  GI50: > 100 µM
  TGI: > 100 µM
SN12C renal
  GI50: > 100 µM
  TGI: > 100 µM
UACC-62 melanoma
  GI50: > 100 µM
  TGI: > 100 µM
NCI-H226 lung
  GI50: > 100 µM
  TGI: > 100 µM
HCT-116 colon
  GI50: 71.2 µM
  TGI: > 100 µM
COLO 205 colon
  GI50: > 100 µM
  TGI: > 100 µM
SK-MEL-2 melanoma
  GI50: > 100 µM
  TGI: > 100 µM
HCT-15 colon
  GI50: > 100 µM
  TGI: > 100 µM
PC-3 prostate
  GI50: > 100 µM
  TGI: > 100 µM
A549 NSCLC
  GI50: > 100 µM
  TGI: > 100 µM
UACC-257 melanoma
  GI50: > 100 µM
  TGI: > 100 µM
LOX IMVI melanoma
  GI50: > 100 µM
  TGI: > 100 µM
U251 CNS
  GI50: > 100 µM
  TGI: > 100 µM
SK-OV-3 ovarian
  GI50: > 100 µM
  TGI: > 100 µM
UO-31 renal
  GI50: > 100 µM
  TGI: > 100 µM
MDA-N
  GI50: 81.5 µM
  TGI: > 100 µM
SK-MEL-28 melanoma
  GI50: > 100 µM
  TGI: > 100 µM
SW-620 colon
  GI50: > 100 µM
  TGI: > 100 µM
DU-145 prostate
  GI50: > 100 µM
  TGI: > 100 µM
HT29 colon
  GI50: > 100 µM
  TGI: > 100 µM
SF-539 CNS
  GI50: > 100 µM
  TGI: > 100 µM
NCI-H460 lung
  GI50: > 100 µM
  TGI: > 100 µM
HOP-92 NSCLC
  GI50: > 100 µM
  TGI: > 100 µM
BT-549 breast
  GI50: > 100 µM
  TGI: > 100 µM
MDA-MB-435
  GI50: 93.2 µM
  TGI: > 100 µM
NCI/ADR-RES ovarian
  GI50: > 100 µM
  TGI: > 100 µM
IGROV1 ovarian
  GI50: > 100 µM
  TGI: > 100 µM
RPMI-8226 leukemia
  GI50: > 100 µM
  TGI: > 100 µM
OVCAR-8 ovarian
  GI50: > 100 µM
  TGI: > 100 µM
HCC-2998 colon
  GI50: > 100 µM
  TGI: > 100 µM
SR leukemia
  GI50: > 100 µM
  TGI: > 100 µM
NCI-H522 lung
  GI50: > 100 µM
  TGI: > 100 µM
K-562 leukemia
  GI50: 90.4 µM
  TGI: > 100 µM
HOP-62 NSCLC
  GI50: > 100 µM
  TGI: > 100 µM
MOLT-4 leukemia
  GI50: > 100 µM
  TGI: > 100 µM
M14 melanoma
  GI50: > 100 µM
  TGI: > 100 µM
OVCAR-4 ovarian
  GI50: > 100 µM
  TGI: > 100 µM
MDA-MB-231 breast
  GI50: > 100 µM
  TGI: > 100 µM
HL-60(TB) leukemia
  GI50: 40.4 µM
  TGI: > 100 µM
SF-295 CNS
  GI50: > 100 µM
  TGI: > 100 µM
OVCAR-5 ovarian
  GI50: > 100 µM
  TGI: > 100 µM
EKVX NSCLC
  GI50: > 100 µM
  TGI: > 100 µM
KM12 colon
  GI50: > 100 µM
  TGI: > 100 µM
